Test system: NC(=O)c1ccc[n+]([C@@H]2O[C@H](COP(=O)(O)OP(=O)(O)OC[C@H]3O[C@@H](n4cnc5c(N)ncnc54)[C@H](OP(=O)(O)O)[C@@H]3O)[C@@H](O)[C@H]2O)c1
Assay: purified protein
Settings: assay conditions by cited earlier methods; co-substrate not given; SD in parentheses; varied: cofactor

Sequence	Km	kcat [s⁻¹]	kcat/Km [M⁻¹ s⁻¹]
CA 7α-HSDH (Clostridium sardiniense; R16G)	1.77 (0.13) mM	58.5	33200
CA 7α-HSDH (Clostridium sardiniense; R194G)	0.72 (0.06) mM	28.7	39800

Reference: article PMC4785404, “The three-dimensional structure of Clostridium absonum 7α-hydroxysteroid dehydrogenase: new insights into the conserved arginines for NADP(H) recognition” (Scientific Reports, 2016)
